Laboratory results from paper PMC5074076, “Novel minimal physiologically-based model for the prediction of passive tubular reabsorption and renal excretion clearance” (European Journal of Pharmaceutical Sciences, 2016).

What was measured:
[1] = calculated from pKa and LogD7.4
[2] = Ionisation classification at pH 6.5 from pKa; details: predominant species (> 50%) at pH 6.5 from measured or calculated pKa
[3] = octanol-buffer pH 7.4, shake-flask
[4] = healthy subjects; plasma and urine data from same subjects; normalised for subject weight and body surface area where necessary; ref Table S2.1; cited from earlier work

Substance | LogD6.5 [1] | Ionisation at pH 6.5 [2] | LogD7.4 [3] | Overall weighted mean CLR [4]
Chlorpheniramine | 0.31 | Base | 1.22 | –
Maraviroc | – | – | – | 177.2 mL/min
Propafenone | – | Base | – | –
